Test results published in US5641751A, “Tumor necrosis factor inhibitors” (Centocor, Inc., priority 1995, dated 1997).

Chains of the proteins cited; added tags and fusions are not shown. Residues count along the entry.
UniProt P01375, 77-233 limits assumed: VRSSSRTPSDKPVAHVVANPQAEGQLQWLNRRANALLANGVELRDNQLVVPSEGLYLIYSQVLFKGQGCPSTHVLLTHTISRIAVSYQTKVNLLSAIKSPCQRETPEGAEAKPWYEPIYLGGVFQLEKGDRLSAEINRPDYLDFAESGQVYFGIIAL

Molecular target: T1, human TNFα (Homo sapiens, UniProt P01375)
T1 construct: purchased Biosource, Camarillo, Calif
Assay: p55 Receptor/IgG fusion protein binding assay (inhibition of TNFα capture by p55-Ig coated plate)
Conditions: positive control, final cA2 Fab concentration 500 ng/ml; typical value
Description: In order to screen compounds for their ability to block TNFα binding to the TNF p55 receptor, an assay has been designed using TNFα and a p55/IgG fusion protein in place of monovalent, non-fusion p55 TNF receptor protein. This assay was designed to identify peptides which bind to human TNFα and thereby prevent the capture of the TNFα by a microtiter plate coated with p55-Ig fusion protein. A constant concentration of human TNFα is preincubated with the test peptide and then incubated on the p55-Ig coated microtiter wells. Bound TNFα is detected using a specific antisera and an alkaline phosphatase-conjugated probe. An active peptide will reduce the amount of human TNFα bound to the well relative to control wells in which TNFα but no peptide was added. […]
To detect TNFα captured by the p55-Ig plate, all wells were incubated in succession with polyclonal rabbit anti-human TNFα (Genzyme, Boston, Mass.; 1:500 in assay buffer, 50 μl/well), biotinylated goat anti-rabbit Ig (H&L) (Vector Laboratories, Burlingame, Calif.; 1 μg/ml in assay buffer, 50 μl/well) and streptavidin-alkaline phosphatase conjugate (Pierce, Rockford, Ill.; 1 μg/ml in assay buffer, 50 μl/well). […] The optical density (OD) at 405 nm was measured on a microtiter plate reader (Molecular Devices Vmax plate reader), with the plate blank wells subtracted as background. […]

percent inhibition of TNFα capture by the p55-Ig plate: ≥ 75%
Substance: cA2 Fab: Fab fragment of the mouse/human monoclonal anti-human TNFα antibody cA2 (positive control) [reference compound]
